Results on three compounds are retold here after patent US11034717B2, “Farnesoid X receptor modulators” (Intercept Pharmaceuticals, Inc., priority 2015, dated 2021).

By UniProt entry, the sequences of proteins in these tests, tags left out. Residues count along the entry.
UniProt Q96RI1, 262-486: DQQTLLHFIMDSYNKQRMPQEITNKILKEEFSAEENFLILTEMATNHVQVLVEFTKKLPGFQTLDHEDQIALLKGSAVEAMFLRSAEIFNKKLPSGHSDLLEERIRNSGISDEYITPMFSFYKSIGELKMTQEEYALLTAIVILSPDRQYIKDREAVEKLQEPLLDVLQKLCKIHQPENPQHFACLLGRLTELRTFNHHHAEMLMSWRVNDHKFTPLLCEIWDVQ

For one data set, the target named is Human FXR (Homo sapiens (Human), UniProt Q96RI1). The data set is described as follows: AlphaScreen FXR / SRC-1 coactivator recruitment assay. Type of data set: biochemical. The following applies: Table 1; Ref CDCA.
Data set [1] in a line: 1-octanol-water partition coefficient of ionized species. Format: physicochemical. Here is the method: (§1) Physiochemical properties of a compound of the invention such as water solubility, critical micellar concentration, surface tension, and LogPA were determined using methods known in the art.
For another data set, the system named is HepG2 cells. The note with it: read-out: ATP Content EC50; Table 5A; from Rizzo et al., Mol. Pharm. 2010, 78, 617-630; cited from earlier work.
Data set [2] can be described thus: Critical micellar concentration. Format: physicochemical. The following applies: determined in […] NaCl water solution. Here is the method: as §1

Broadly, the EC50 is the concentration that produces a half-maximal response. Regarding “6α-ethyl-3α,7α,23-trihydroxy-24-nor-5β-cholan-23-sulphate sodium salt [Compound B]”, the results for the EC50 at Human FXR and in the data set with HepG2 cells were 0.03 µM and 800 µM, respectively. In data set [1], the “LogPA−: 1-octanol-water partition coefficient as ionized species” value came out at 2.0. Regarding `CC[C@H]1[C@@H](O)C2C3CC[C@H]([C@H](C)CCC(=O)O)[C@@]3(C)C[C@H](O)C2[C@@]2(C)CC[C@@H](O)C[C@@H]12` (some centres unmarked) [Compound L1, reference compound], the “CMC: Critical Micellar Concentration” value in data set [2] stood at 15.8 mM. `CC[C@H]1[C@@H](O)[C@@H]2[C@H](CC[C@]3(C)[C@@H]([C@H](C)CCC(=O)O)CC[C@@H]23)[C@@]2(C)CC[C@@H](O)C[C@@H]12` [Compound A, 6α-ethyl-3α,7α-dihydroxy-5β-cholan-24-oic acid]: in the data set on HepG2 cells, the EC50 is 230 µM.
